Laboratory results as given in patent US20230271954A1 (Gossamer Bio Services, Inc., priority 2020, published 2023).

By UniProt entry, the sequences of proteins in these tests, tags left out. Residues count along the entry.
UniProt Q13574, 1-929 isoform 4: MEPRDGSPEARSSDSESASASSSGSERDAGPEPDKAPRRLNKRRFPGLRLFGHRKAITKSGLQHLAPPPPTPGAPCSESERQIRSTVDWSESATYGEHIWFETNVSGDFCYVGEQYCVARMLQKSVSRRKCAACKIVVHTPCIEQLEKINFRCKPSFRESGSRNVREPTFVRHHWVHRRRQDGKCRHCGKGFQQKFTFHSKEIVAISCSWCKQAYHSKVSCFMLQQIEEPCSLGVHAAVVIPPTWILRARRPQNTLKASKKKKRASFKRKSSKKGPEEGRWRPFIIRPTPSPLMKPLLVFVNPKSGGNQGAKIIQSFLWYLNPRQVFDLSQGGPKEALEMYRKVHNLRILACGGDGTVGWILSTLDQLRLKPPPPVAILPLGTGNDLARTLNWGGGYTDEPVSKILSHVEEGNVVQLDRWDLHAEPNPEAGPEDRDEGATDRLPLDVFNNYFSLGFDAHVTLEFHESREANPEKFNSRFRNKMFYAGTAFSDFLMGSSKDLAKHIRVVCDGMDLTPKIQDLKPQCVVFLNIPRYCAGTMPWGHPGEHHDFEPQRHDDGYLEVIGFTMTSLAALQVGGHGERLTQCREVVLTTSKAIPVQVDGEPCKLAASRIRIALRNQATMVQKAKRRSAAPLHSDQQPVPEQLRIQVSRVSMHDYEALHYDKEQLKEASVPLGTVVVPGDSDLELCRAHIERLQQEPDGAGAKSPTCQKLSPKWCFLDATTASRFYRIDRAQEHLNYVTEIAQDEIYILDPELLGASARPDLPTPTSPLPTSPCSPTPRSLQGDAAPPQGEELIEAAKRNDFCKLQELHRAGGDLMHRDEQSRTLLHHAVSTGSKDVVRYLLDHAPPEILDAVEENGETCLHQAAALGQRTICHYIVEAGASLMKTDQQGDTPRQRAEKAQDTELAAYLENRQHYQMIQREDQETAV
UniProt P23743, whole entry: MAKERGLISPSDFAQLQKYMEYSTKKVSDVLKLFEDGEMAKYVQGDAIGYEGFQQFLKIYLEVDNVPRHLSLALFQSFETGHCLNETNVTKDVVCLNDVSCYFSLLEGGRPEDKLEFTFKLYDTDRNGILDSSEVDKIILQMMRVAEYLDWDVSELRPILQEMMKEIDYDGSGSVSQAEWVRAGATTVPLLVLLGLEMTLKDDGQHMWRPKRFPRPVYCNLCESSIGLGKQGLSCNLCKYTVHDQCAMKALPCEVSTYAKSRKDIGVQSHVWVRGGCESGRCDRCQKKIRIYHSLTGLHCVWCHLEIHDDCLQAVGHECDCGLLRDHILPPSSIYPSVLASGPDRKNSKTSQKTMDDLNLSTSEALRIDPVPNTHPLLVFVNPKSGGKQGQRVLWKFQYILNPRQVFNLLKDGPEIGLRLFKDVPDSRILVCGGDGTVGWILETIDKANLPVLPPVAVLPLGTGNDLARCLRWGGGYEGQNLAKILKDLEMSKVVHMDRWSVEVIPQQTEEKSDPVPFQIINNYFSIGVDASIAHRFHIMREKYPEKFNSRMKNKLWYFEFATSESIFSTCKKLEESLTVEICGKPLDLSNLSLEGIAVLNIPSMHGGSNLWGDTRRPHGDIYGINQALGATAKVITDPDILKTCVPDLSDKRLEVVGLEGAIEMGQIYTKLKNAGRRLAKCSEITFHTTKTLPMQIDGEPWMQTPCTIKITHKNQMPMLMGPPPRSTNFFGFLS

Experiments:
[1] = target: DGKζ (Homo sapiens, UniProt Q13574); experiment: DGKζ biochemical assay (ADP-Glo); details: read-out: DGK ζ IC50
Method: (§1) Compounds of the present invention were prepared into 10 mM DMSO solution and 10 nL of stock was transferred into 384 plates (Optiplate 384 plate) using Echo550. DMSO was used as high control, and ATP substrate buffer was used as a low control. A 1× enzyme assay buffer was prepared (Hepes, pH 7.0 25 mM, BSA 0.05%, Triton-X100 0.002%, CaCl2) 1 μM, MgCl2 10 mM, DTT 2 mM). The enzyme assay was performed by diluting enzyme DGKα (1 μg/μL DGKα, Carna12-101, SEQ ID NO: 3) or DGKζ (1μ/μL DGKζ, Carna 12-110, SEQ ID NO: 4) using 1× assay buffer. OAG (1-oleoyl-2-acetyl-sn-glycerol, 25 mg/ml, Avanti 8001000) and PS (10 mg/ml, Avanti 840032P) were mixed at the ratio of 1:2. A 1× substrate solution was prepared with 1× assay buffer by 100-fold dilution. The substrate solution was sonicated on ice for 1 min. The pure ATP was added to the substrate solution (DGKα:400 μM). 5 μL of the enzyme solution were added to the 384 well plate, and the plate was spun for 1 min at 1000 rpm and incubated for 30 mins at RT. 5 μL of 1× substrate solution were added to the 384 well plate, the plate was spun and then incubated for 45 mins at RT. 10 μL ADP-Glo […] was added to stop the assay. After 60 mins at RT, 20 μL ADP-Glo Detection buffer was added as the final step. Plate was read after 45 min incubation at RT.
(§2) Data analysis was performed by calculating the […] using following the formula:
(§3) [formula] • High control (Hc): DMSO/DGKα(DGKζ)/Substrate/ATP/ADP-Glo • Low Control (Lc): ATP/ADP-Glo

[2] = target: DGKα (Homo sapiens, UniProt P23743); experiment: DGKα biochemical assay (ADP-Glo); details: read-out: DGK α IC50
Method: as §1, §2, §3

| IC50 [1] | IC50 [2] | SMILES |
| --- | --- | --- |
| 100 to 1000 nM | < 10 nM | Cn1c(=O)c(C#N)c(N(C)[C@H]2CC[C@@H](N(CC3CC3)c3ccc(F)c(F)c3)CC2)c2nc(Cl)ccc21 |
| 100 to 1000 nM | > 1000 nM | COc1cc(OC)cc(N(CC2CC2)[C@H]2CC[C@H](N(C)c3c(C#N)c(=O)n(C)c4ccc(C#N)nc34)CC2)c1 |
| 10 to 100 nM | > 1000 nM | COc1cc(N(CC2CC2)[C@H]2CC[C@@H](N(C)c3c(C#N)c(=O)n(C)c4ccc(C#N)nc34)CC2)cc(F)c1F |
